Data reported in patent US10155972B2, “Screening method” (IOmet Pharma Ltd., priority 2013, dated 2018).

Protein sequences, listed by entry. Tags and fused reporters are not part of them.
UniProt P48775, whole entry: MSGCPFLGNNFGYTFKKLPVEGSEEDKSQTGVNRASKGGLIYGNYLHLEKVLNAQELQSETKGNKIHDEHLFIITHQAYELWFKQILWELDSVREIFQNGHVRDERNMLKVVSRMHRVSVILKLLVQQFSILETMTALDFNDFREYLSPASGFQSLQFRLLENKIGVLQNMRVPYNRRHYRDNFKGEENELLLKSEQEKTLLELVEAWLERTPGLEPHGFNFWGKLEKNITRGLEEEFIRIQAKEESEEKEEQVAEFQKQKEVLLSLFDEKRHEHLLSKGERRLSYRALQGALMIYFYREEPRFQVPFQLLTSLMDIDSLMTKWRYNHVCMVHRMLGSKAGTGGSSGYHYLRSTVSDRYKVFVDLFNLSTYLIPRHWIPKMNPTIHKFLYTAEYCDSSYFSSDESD
UniProt P14902, whole entry: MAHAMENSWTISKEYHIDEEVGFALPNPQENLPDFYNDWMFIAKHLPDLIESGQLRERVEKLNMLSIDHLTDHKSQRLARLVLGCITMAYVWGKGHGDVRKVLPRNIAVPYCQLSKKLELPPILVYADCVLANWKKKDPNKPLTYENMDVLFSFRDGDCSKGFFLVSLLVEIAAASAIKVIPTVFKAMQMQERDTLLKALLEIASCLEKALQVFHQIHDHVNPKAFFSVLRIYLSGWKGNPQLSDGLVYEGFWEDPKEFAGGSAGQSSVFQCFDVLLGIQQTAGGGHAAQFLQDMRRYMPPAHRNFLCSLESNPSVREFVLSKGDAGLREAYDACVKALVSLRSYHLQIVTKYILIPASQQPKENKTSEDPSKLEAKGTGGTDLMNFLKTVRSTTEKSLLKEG

Tests used:
human TDO = human TDO (Homo sapiens (Human), UniProt P48775); assay: TDO coupled biochemical assay; conditions: coupled with kynurenine formamidase, 330 μM L-tryptophan, fluorescence 475 nm/530 nm
[1] = system: A172 human glioblastoma cells; assay: A172 kynurenine cell based assay; conditions: 500 μM L-Trp, 48 h, absorbance at 490 nm
human IDO = human IDO (Homo sapiens (Human), UniProt P14902); assay: IDO coupled biochemical assay; conditions: coupled with kynurenine formamidase, 45 μM L-tryptophan, fluorescence 475 nm/530 nm
[2] = system: SK-OV-3 ovary adenocarcinoma cells; assay: SKOV3 kynurenine cell based assay; conditions: SK-OV-3 cells, IFNγ 500 ng/ml, 500 μM L-Trp, 48 h, absorbance at 490 nm

Row | SMILES | hTDO biochemical assay pIC50 (human TDO) | A172 Kynurenine cell based assay pIC50 [1] | hIDO biochemical assay pIC50 (human IDO) | SKOV3 Kynurenine cell based assay pIC50 [2]
1 | CS(=O)(=O)N1CC=C(c2c[nH]c3ccccc23)CC1 | 5.4 | 5.8 | <3.9 | <4.0
2 | NS(=O)(=O)N1CC=C(c2c[nH]c3cc(F)ccc23)CC1 | 5.2 | 6.8 | <3.9 | <4.0
